For the test, the target named is 5-hydroxytryptamine receptor 2C (Homo sapiens, UniProt P28335). The experiment in a line: 5-HT2C Receptor Binding Test. Here is the method:
The test tubes were placed under a reaction condition of 25° C. 50 μg of the receptor membrane protein 5-HT2C was added to all the tubes. In non-specific binding tubes, 50 μL of a corresponding unlabeled ligand 5-HT at a concentration of 10−4 M was added to a final concentration of 10 μM, and pre-reacted for 30 minutes. In test tubes, 30 μL of test example compounds (a concentration of 104-10−10 M) were added, respectively. All the tubes were added with 40 μL of [3H]-LSD (lysergic acid diethylamide), respectively. The volume in all reaction tubes was made up to 300 μL with Tris-HCl buffer (50 mM Tris-HCl, 1 mM EDTA, 5 mM MgCl2, 0.1% NaN3, 0.1 mM PMSF, pH 7.4); the reaction was carried out at 25° C. for 1 hour; the mixture was then spotted on a type 49 glass fiber filter paper, suction filtered under a vacuum, washed 3 times with 2 mL of ice-cold Tris-HCl buffer (50 mM Tris-HCl Buffer, 1 mM EDTA, 5 mM MgCl2, 0.1% NaN3, pH7.4), and dried with suction. The filter paper was taken out and dried by baking, and then placed in a scintillation bottle. 1 mL of the scintillation liquid was added, and the radioactive intensity was measured by a liquid scintillation counter

Amino acid sequences for entries named in this document (tags omitted). A change or cut given only in a name is not applied to a line headed by its entry.
UniProt P28335: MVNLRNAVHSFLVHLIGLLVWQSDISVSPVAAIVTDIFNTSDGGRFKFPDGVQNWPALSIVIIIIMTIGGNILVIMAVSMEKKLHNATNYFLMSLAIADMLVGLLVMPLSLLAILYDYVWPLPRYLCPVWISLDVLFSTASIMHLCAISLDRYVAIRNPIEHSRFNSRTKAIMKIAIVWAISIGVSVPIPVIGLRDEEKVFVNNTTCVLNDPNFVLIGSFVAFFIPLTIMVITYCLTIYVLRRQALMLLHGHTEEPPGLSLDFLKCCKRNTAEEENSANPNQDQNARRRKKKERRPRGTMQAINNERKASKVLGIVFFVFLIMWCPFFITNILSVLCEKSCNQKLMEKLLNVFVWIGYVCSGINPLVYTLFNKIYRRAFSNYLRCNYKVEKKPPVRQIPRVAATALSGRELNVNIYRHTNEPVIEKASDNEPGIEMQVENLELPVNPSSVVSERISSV

The record followed here is BindingDB's records for patent US11980598 (Beijing Greatway Pharmaceutical Technology Co., 2024).

Consider `COc1ccc2cccc(CCNC(C)=O)c2c1` [US11980598, Compound Ago], for which the IC50 worked out at 4.52 nM.

By IC50 is commonly meant the concentration at which inhibition is half-maximal. A higher IC50 goes with weaker potency in that assay.
